Ab-14 heavy chain CDR variants: yeast mating affinities

Binding partner: SARS-CoV-2 spike HR2 peptide, sequence PDVDLGDISGINAS.

Parent: Ab-14, a human scFv built as VH, a 15-residue (Gly4Ser)3 linker, VL. Only the CDRs of the heavy chain vary.
VH: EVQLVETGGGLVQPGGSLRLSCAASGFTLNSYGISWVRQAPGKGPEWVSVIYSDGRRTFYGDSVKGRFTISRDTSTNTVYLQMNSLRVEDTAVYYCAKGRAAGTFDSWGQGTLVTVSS
VL: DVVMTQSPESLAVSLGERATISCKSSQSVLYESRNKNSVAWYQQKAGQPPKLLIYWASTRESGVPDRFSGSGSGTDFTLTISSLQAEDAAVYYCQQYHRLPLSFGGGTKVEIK

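The parent was found by panning a naive human phage display library on the peptide. These sequences belong to a second round, designed from the earlier measurements on random variants of the parent. Several design methods are mixed in this list. The assay is AlphaSeq: two haploid yeast populations carry antibody and antigen on their surface. Pairs that bind mate more often; barcode pairs of the diploids are counted by sequencing. A regression on co-assayed BCL2-family reference pairs converts the normalised counts of each replicate to an apparent Kd. Mating was done six times.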

Each variant is given by its three heavy chain CDRs, as the data file delimits them; those of the parent are GFTLNSYGIS, VIYSDGRRTFYGDSVK, GRAAGTFDS. Variants here have more than six changes. Values are log10 of the apparent Kd in nM; lower means stronger binding. An entry "nd" has no value in the source: the pair was not observed among the diploids in that replicate. This suggests poor binding but is not conclusive. Three control strains display no target. For all heavy chain designs, 1% of the pairings with them gave a signal, with a median of 2.08 and one signal in twenty below 0.84, so weak values seen in few replicates may be background.

CDR-H1	CDR-H2	CDR-H3	log10 Kd, replicates
GFDLDEYGIS	VIYADGMRTAYSDSVK	GETAGTFDQ	-0.28 -0.48 -0.77 -0.76 -0.46 -0.50
GFDLNEYGIS	VIYADGRRTQYIDSVK	GNEAGTFDD	0.25 -0.02 -0.89 -0.91 -0.36 -0.13
GFALDEYGIS	VIYADGKRTAYHNKVK	GGYSFLKGI	nd nd nd nd nd nd
GDDLENVGIS	VIYADGKRKAYAQKVK	GHTGGTFFD	nd nd nd nd nd nd
GFDLDEYGIS	VIYADGRRTFYSDSVK	GKTAGTFDV	-0.74 -0.42 -0.56 -0.38 -0.98 -0.50
GFDLNEYGIS	VIYADGRRTAYSDSVK	GGNAGTFDF	0.07 -0.17 0.16 -0.07 -0.11 0.70
GFDLNEYGIS	VIYADGMRTAYTDSVK	GEVAGTFDL	0.27 -0.35 0.05 -0.01 0.05 0.11
GFDLDEYGIS	VIYADGKRTAYSDDVK	GNVAGTFDV	-0.30 -0.62 -0.24 -0.58 -0.83 -0.57
GFDLNEYGIS	VIYADGVRTAYADKVK	GNNAGTFDV	nd nd 1.49 nd 2.85 nd
GFDLNEYGIS	VIYADGMRTAYADDVK	GKNAGTFDV	-0.41 -0.18 -0.39 -0.44 -0.34 -0.08
GFELDEYGIS	VIYADGKRKAYDNAVK	GFTGGVKLI	nd nd nd nd nd nd
GFDLDEYGIS	VIYADGMRTAYTDSVK	GETAGTFDQ	-0.35 -0.27 0.07 0.52 0.11 0.03
GFNLDEMGIS	VIYADGSRQVYADSVK	GHFGGNKIN	nd nd nd nd nd nd
GFDIQEYGIS	VIYADGMRVAYTNSVK	GTQGISNIE	nd nd nd nd 2.75 nd
EFDLQEYGIS	VIYADGKREAYKDDFK	GQVAGTFDE	0.51 0.47 0.57 0.64 0.16 1.51
GFDLNEYGIS	VIYADGRRTFYADSVK	GQLAGTFDM	-0.39 -0.53 -0.83 -1.12 -0.91 -0.96
GFDLDEYGVS	VIYADGERKAYADKVK	GTHGGTRDI	nd nd nd nd nd nd
GFDLNEYGIS	VIYADGVRTAYADTVK	GNQAGTFDV	-0.72 -0.70 -0.84 -0.62 -0.76 -0.24
GFDINEYGVS	VIYADGMRAFYTDSVK	GKGAGIALE	nd nd nd nd nd nd
GFDLLEYGIS	VIYADGSRVAYKNNVK	GKNGATGSN	nd nd nd nd nd nd
GEDLLEYGIS	VIYADGIRVAYTNQVK	GNEAGFFTL	nd nd nd nd nd nd
GFDLEEYGIS	VIYADGKREAYTANVK	GGKSGDFFM	nd nd nd nd nd nd
GFNLDEYGIS	VIYADGVRKAYSSKVK	GKVWWFNLQ	nd nd nd nd nd nd
GFDLNEYGIS	VIYADGRRTFYTDSVK	GEIAGIFDV	-0.14 0.04 -0.10 -0.20 -0.13 0.13
GFDLDEYGIS	VIYADGRRKAYADSVK	GENAGTFDV	0.01 -0.55 -0.31 -1.14 -1.27 0.45
GFDLNEYGIS	VIYADGMRTYYADSVK	GTNAGTFDL	-0.41 -0.05 -0.50 -1.20 -0.85 -0.10
GFKINEYGIS	VIYADGMRRSYADSVK	GAESGYMVV	nd nd nd nd nd nd
GPSLDEYGIS	VIYADGMRTAYTDSVK	GLFAATFVD	nd nd nd nd nd nd
GFDIDEYGIS	VIYADGRRTVYADSVK	GTNAGTFDS	-0.16 -0.52 -1.39 -0.93 -0.92 -0.41
GEDLQEYGIS	VIYADGFRQSYSDKVK	GQHGGFLVK	nd nd nd nd nd nd
GFDLNEYGIS	VIYADGRRTAYADDVK	GNVAGTFDL	-0.18 -0.72 -1.33 -1.33 -0.08 -0.58
GFDLNEYGIS	VIYADGKRTAYADSVK	GEVAGTFDA	0.05 -0.05 -0.10 -0.22 -0.35 0.18
GFDLNEYGIS	VIYADGRRTYYADSVK	GNVAGTFDM	-0.32 0.05 0.18 -0.24 -0.24 0.17
GFDLNEYGIS	VIYADGRRTFYADSVK	GSEAGTFDI	-0.93 -0.77 -1.81 -1.18 -0.88 1.11
GFDLNEYGIS	VIYADGVRTFYTDSVK	GETAGTFDS	-0.25 -0.23 -0.59 -0.68 -0.68 -0.55
GFDLQEYGIS	VIYADGQRTKVTDNVK	GQVTGTAFV	nd nd nd nd nd nd
GFDVMEYGIS	VIYADGMRQAYTNKVK	GNNGSSGLF	nd nd nd nd nd nd
GFDLNEYGIS	VIYADGVRTSYVDSVK	GETAGTFDV	2.65 1.96 0.88 1.13 1.08 2.78
GFDLNEYGIS	VIYADGRRTAYIDSVK	GHAAGTFDA	-0.22 -0.10 -0.55 -0.99 -0.61 -0.20
GFDLNEYGIS	VIYADGMRTAYKDSVK	GENAGTFDV	-0.16 -0.10 -0.12 -0.43 0.07 -0.18
GFDLNEYGIS	VIYADGRRTAYADNVK	GEVAGTFDM	-0.31 -0.58 -0.46 -0.86 -0.80 -0.55
GFNLNEYGIS	VIYADGRRTFYADSVK	GNTAGTFDV	-0.40 -0.63 -0.72 -0.87 -0.63 -0.41
GFDLNEYGIS	VIYADGRRTAYTDSVK	GEHAGTFDV	-0.30 0.60 -1.22 0.44 -0.59 1.08
GFDLEDYGIS	VIYADGRRTAYADSVK	GQNAGTFDV	0.26 0.26 0.22 -0.01 0.33 0.07
GFDLNEYGIS	VIYADGQRTAYADSVK	GSNAGTFDV	-0.27 -0.01 -0.02 -0.11 0.12 0.09
GFDLNEYGVS	VIYADGQRTYYTDSVK	GKVGDLLMA	0.34 -0.24 -0.50 -0.02 -0.42 0.25
GFDLNEYGIS	VIYADGRRTFYSDSVK	GEIAGTFDA	-1.02 -1.03 -1.15 -1.12 -0.98 -0.75
GFDLNEYGIS	VIYADGTRTAYIDSVK	GNNAGTFDV	nd 1.22 nd 1.72 0.69 3.29
GFDLNEYGIS	VIYADGVRKAYSDSVK	GNVAGTFDL	-0.53 -0.69 -0.54 -0.66 -0.88 -0.38
GFDLNEYGIS	VIYADGMRKSYADSVK	GENAGTFDV	-0.22 -0.42 -0.25 -0.48 -0.47 -0.21
GFNLNEYGIS	VIYADGQRTFYADSVK	GQIAGTFDV	-0.52 -0.79 -0.82 -0.98 -0.87 -0.55
GFSLDEYGIS	VIYADGIRRVYVDKVK	GQYGGDFIE	nd nd nd nd nd nd

The opening 3 entries, copied out:

CDR-H1,CDR-H2,CDR-H3,"log10 Kd, replicates"
GFDLDEYGIS,VIYADGMRTAYSDSVK,GETAGTFDQ,-0.28 -0.48 -0.77 -0.76 -0.46 -0.50
GFDLNEYGIS,VIYADGRRTQYIDSVK,GNEAGTFDD,0.25 -0.02 -0.89 -0.91 -0.36 -0.13
GFALDEYGIS,VIYADGKRTAYHNKVK,GGYSFLKGI,nd nd nd nd nd nd

The authors' rule: three or more of the six replicates give a measured affinity, fewer mean a poor binder. The range of this assay differs from that of the first round, and the authors advise against merging the two.

Source: Li et al. 2023 (doi:10.1038/s41467-023-39022-2), MIT Lincoln Laboratory and A-Alpha Bio; data file from the FLAb repository.